We go through one molecule from patent US12275720B2, “Small molecule inhibitors of galectin-3” (BRISTOL MYERS SQUIBB, priority 2020, dated 2025).

By UniProt entry, the sequences of proteins in these tests, tags left out.
UniProt P17931, whole entry: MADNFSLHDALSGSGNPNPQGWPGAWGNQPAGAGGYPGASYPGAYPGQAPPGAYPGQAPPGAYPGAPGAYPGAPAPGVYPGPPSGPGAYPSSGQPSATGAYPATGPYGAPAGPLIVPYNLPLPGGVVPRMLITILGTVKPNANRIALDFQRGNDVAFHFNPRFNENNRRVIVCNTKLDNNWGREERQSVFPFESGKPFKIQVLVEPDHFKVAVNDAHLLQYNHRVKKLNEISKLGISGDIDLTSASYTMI

In the test the target is His-tagged recombinant human Gal-3 (hGal-3) (Homo sapiens, UniProt P17931). The test can be described thus: Gal 3 HTRF Assay. The conditions noted are these: read-out: hGal3 IC50 (HTRF); HTRF assay (default), 15 nM hGal-3, 15 nM B-ASF. For orientation: Time-resolved FRET reads energy transfer from a long-lived donor to a nearby acceptor.

Broadly, the IC50 is the concentration that inhibits the measured activity by half. As to `CO[C@@H]1[C@@H](n2cc(-c3cccc(F)c3)nn2)[C@@H](O)[C@@H](CO)O[C@H]1C(=O)N(C)C1COCC(n2ncc3cc(F)cnc32)C1O` (single isomer, unassigned), the IC50 stood at 40 nM.
